Screening data deposited in PubChem by Broad Institute.
CDK5 p35 inh: inhibitors of human CDK5/p35 kinase, primary screen, biochemical, single concentration. Cyclin-dependent kinase 5 (Homo sapiens) + Cyclin-dependent kinase 5 activator 1 (Homo …. Recombinant CDK5/p35, ADP-Glo luminescence, 60 min. inhibition, % at 10 µM. 330,000 tested, 0.01% active. AID 488839, 2010;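 active = highest replicate inhibition of at least 50% and at least 75% of replicates reaching 50%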;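 note: plate controls were DMSO neutral control for no effect and GW8510 at 10 µM for full effect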
Rtt109 Vps75: inhibitors of C. albicans Rtt109/Vps75 HAT, primary screen, biochemical, ThioGlo CoA-SH fluorescence, plate reader; purified Rtt109/Vps75, 4 h; inhibition, % at 34.9 µM; 330,000 tested, 0.16% active;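 active = inhibition of at least 50% in every replicate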
Yeast UUG start: modulators of yeast start codon fidelity, primary screen, whole organism, S. cerevisiae, single point, plate reader; S. cerevisiae UUG-firefly luciferase reporter, luminescence/redox ratio; activity score, % at 18.7 µM; 0.13% of 350,000 active; AID 602363, 2012;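 active = replicate mean at a twofold rise or more, about +100% in these data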;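 also: firefly luciferase made from a UUG start codon reports start codon fidelity; reporter light over untreated wells divided by growth signal over untreated wells; some hits fall short of that in this replicate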
Statin myotox sup: suppressors of statin myotoxicity in C2C12 myotubes, primary screen, cell-based, single point, plate reader; C2C12 myotubes + simvastatin, ATP luminescence, 48 h; scaled: DMSO 0, geranylgeraniol control 100; rescue of ATP level, % at 7.49 µM; 330,000 tested, 0.78% active;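 active = mean ATP rescue above about 67%, or every replicate alone reaching that limit, limit read from the data, passing the limit was not always enough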;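 note: myotubes were challenged with 10 µM simvastatin during compound exposure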
Cneo AK release: Cryptococcus neoformans cell lysis inducers, primary screen, AK release luminescence, single concentration | C. neoformans lysis, adenylate kinase release luminescence, 4 h; normalised: neutral wells 0, clomiphene wells 100 | lysis activity, % at 15 µM | 360,000 tested, 0.2% active;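 active = mean lysis activity across replicates of at least 80%, whatever share of replicates individually reach that level; inactive = mean lysis activity below 80%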
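Material – Cryptococcus neoformans yeast cells · Quantity – 5 × 10^6 yeast cells/mL · Buffer or medium – YPD medium · Compound – single dose · Timing – 4 h static compound exposure, 37 °C, read 1 h post-reagent · Signal – adenylate kinase release luminescence · Read-out basis – lysis from increased AK signal · Benchmarks – Clomiphene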
Active calls of the source: *; · = no result given. Only some compounds are listed: those with a hit (about 1% of all), similar ones and a draw of the others.

Sequence of screens – CDK5 p35 inh	Rtt109 Vps75	Yeast UUG start	Statin myotox sup	Cneo AK release
- C[C@H]1CN([C@@H](C)CO)C(=O)Cc2cc(NC(=O)CCCCCC(=O)Nc3ccccc3N)ccc2O[C@H]1CN(C)Cc1ccc(C(F)(F)F)cc1
 : ·	·	3	111*	2
- O=C(C[C@@H]1C[C@@H]2c3cc(NC(=O)Nc4ccccc4)ccc3O[C@@H]2[C@H](CO)O1)NCc1ccccn1
 : ·	·	-20	3	-3
- CCCCNC(=O)C(OC(=O)c1ccccc1)c1ccco1 (configuration not stated)
 : ·	·	-8	·	-4
- C[C@@H]1CN([C@@H](C)CO)C(=O)c2cc(NC(=O)Cc3ccccc3)ccc2O[C@@H]1CN(C)C(=O)Nc1ccc(C(F)(F)F)cc1
 : ·	·	·	4	-3
- C[C@H](CO)N1C[C@H](C)[C@@H](CN(C)C(=O)Nc2ccccc2)Oc2ccc(NC(=O)CCC(F)(F)F)cc2CC1=O
 : ·	·	-5	-23	7
- C[C@H]1CN([C@@H](C)CO)C(=O)Cc2cc(NC(=O)CCCCCC(=O)Nc3ccccc3N)ccc2O[C@@H]1CN(C)Cc1ccc(-c2ccccc2)cc1
 : ·	·	10	133*	-1
- C[C@@H]1CN([C@@H](C)CO)C(=O)Cc2cc(NC(=O)CCCCCC(=O)Nc3ccccc3N)ccc2O[C@@H]1CN(C)Cc1ccc(-c2ccccc2)cc1
 : ·	·	10	19	-3
- C[C@H]1CN([C@@H](C)CO)C(=O)c2cc(NC(=O)CCCCCC(=O)Nc3ccccc3N)ccc2O[C@H]1CN(C)C(=O)Nc1ccc(C(F)(F)F)cc1
 : ·	·	9	41	52
- C[C@@H]1CN([C@H](C)CO)C(=O)Cc2cc(NC(=O)CCCCCC(=O)Nc3ccccc3N)ccc2O[C@H]1CN(C)Cc1ccc2c(c1)OCO2
 : ·	·	19	19	92*
- C[C@H]1CN([C@@H](C)CO)C(=O)Cc2cc(NC(=O)CCCCCC(=O)Nc3ccccc3N)ccc2O[C@@H]1CN(C)Cc1ccc2c(c1)OCO2
 : ·	·	25	49	1
- C[C@@H]1CN([C@@H](C)CO)C(=O)c2cc(NC(=O)CCCCCC(=O)Nc3ccccc3N)ccc2O[C@@H]1CN(C)C(=O)Nc1ccc(C(F)(F)F)cc1
 : ·	·	-1	68*	57
- C[C@@H]1CN([C@H](C)CO)C(=O)Cc2cc(NC(=O)CCCCCC(=O)Nc3ccccc3N)ccc2O[C@H]1CN(C)CC1CCCCC1
 : ·	·	-2	88*	-6
- O=C(Nc1ccc(F)cc1)N[C@H]1CC[C@@H](CC(=O)N2CCOCC2)O[C@@H]1CO
 : ·	·	-11	-5	1
- CO[C@@H]1CN(C)C(=O)c2cc(NC(=O)C3CC3)ccc2OC[C@H](C)N(Cc2cncnc2)C[C@H]1C
 : ·	·	·	2	0
- C[C@@H]1CN([C@H](C)CO)C(=O)c2cccc(NC(=O)c3ccc(-c4nccs4)cc3)c2O[C@H]1CN(C)C(=O)Nc1ccccc1
 : ·	·	-5	·	-2
- CC1CCN(c2nc(CN3CCCCC3)nc3scc(-c4ccccc4)c23)CC1
 : -2	61*	3	·	28
- CC1CCN(c2nc(-c3cccnc3)nc3scc(-c4ccccc4)c23)CC1
 : 0	-2	·	·	·
- O=C(NC(=S)NCC1COc2ccccc2O1)c1ccccc1 (configuration not stated)
 : 0	11	-17	-12	161*
- CCCC#Cc1ccc2c(c1)O[C@H](CN(C)C(=O)NC(C)C)[C@@H](C)CN([C@@H](C)CO)S2(=O)=O
 : ·	·	14	4	6
- C[C@@H]1CCCCO[C@H](CN(C)Cc2ccc(C(F)(F)F)cc2)[C@@H](C)CN([C@@H](C)CO)C(=O)c2cc(NC(=O)Cc3ccccc3)ccc2O1
 : ·	·	3	-48	-1
- CN(CC(=O)Nc1ccc(Cl)cc1)C(=O)c1cccc(S(=O)(=O)N2CCN(Cc3ccccc3)CC2)c1
 : 0	-6	2	-2	-1
- CN(CC(=O)Nc1ccc(Cl)cc1)C(=O)c1cccc(S(=O)(=O)NCc2ccccc2)c1
 : 1	60*	-20	·	0
- C[C@@H]1CCCCO[C@H](CN(C)C(=O)Nc2ccc(F)cc2)[C@@H](C)CN([C@H](C)CO)C(=O)c2cc(NS(C)(=O)=O)ccc2O1
 : ·	·	1	·	3
- COc1ccc(CCNC(=O)c2ccc(N3CCCC3=O)cc2)cc1
 : 1	-2	-20	114*	2
- O=C(OC(C(=O)NCc1ccc2c(c1)OCO2)c1ccccc1F)c1ccco1 (configuration not stated)
 : 2	0	10	84*	1
- COC(=O)c1[nH]c2cc(C)ccc2c1NC(=O)CN1CCN(c2ccccc2OC)CC1
 : 1	25	-6	86*	1
- COC(=O)c1[nH]c2cc(C)ccc2c1NC(=O)CN1CCOCC1
 : -1	0	·	·	·
- CCC(C)Sc1nc2c(c(=O)[nH]c(=O)n2C)n1Cc1ccc(Cl)cc1 (configuration not stated)
 : 1	6	-5	130*	-4
- CCOC(=O)C(C)Sc1nc2c(c(=O)[nH]c(=O)n2C)n1Cc1ccc(Cl)cc1 (configuration not stated)
 : 0	2	0	1	-4
- CCCSc1nc2c(c(=O)[nH]c(=O)n2C)n1C
 : -1	2	-10	92*	1

In the list so far, these contain an NH in an aromatic ring.
Sequence of screens – CDK5 p35 inh	Rtt109 Vps75	Yeast UUG start	Statin myotox sup	Cneo AK release
- COC(=O)c1[nH]c2cc(C)ccc2c1NC(=O)CN1CCN(c2ccccc2OC)CC1
 : 1	25	-6	86*	1
- COC(=O)c1[nH]c2cc(C)ccc2c1NC(=O)CN1CCOCC1
 : -1	0	·	·	·
- CCC(C)Sc1nc2c(c(=O)[nH]c(=O)n2C)n1Cc1ccc(Cl)cc1 (configuration not stated)
 : 1	6	-5	130*	-4
- CCOC(=O)C(C)Sc1nc2c(c(=O)[nH]c(=O)n2C)n1Cc1ccc(Cl)cc1 (configuration not stated)
 : 0	2	0	1	-4
- CCCSc1nc2c(c(=O)[nH]c(=O)n2C)n1C
 : -1	2	-10	92*	1

(continued)
Sequence of screens – CDK5 p35 inh	Rtt109 Vps75	Yeast UUG start	Statin myotox sup	Cneo AK release
- CC(C)Sc1nc2c(c(=O)[nH]c(=O)n2C)n1Cc1ccccc1
 : -1	-5	-2	10	0
- Cc1cccc(Cn2c(N3CCN(C)CC3)nc3c2c(=O)[nH]c(=O)n3C)c1
 : 1	-1	-7	4	-16
- CCSc1nc2c(c(=O)[nH]c(=O)n2C)n1C
 : -1	-2	-11	-3	0
- CC(C)Sc1nc2c(c(=O)[nH]c(=O)n2C)n1Cc1ccc(Cl)cc1
 : 0	-31	0	149*	0
- Cc1cccc(Cn2c(N3CCCCC3C)nc3c2c(=O)[nH]c(=O)n3C)c1 (configuration not stated)
 : -1	5	-4	120*	0
- C[C@@H]1CN([C@H](C)CO)C(=O)c2cccc(NC(=O)Nc3ccc4c(c3)OCO4)c2O[C@@H]1CN(C)CC1CCCCC1
 : ·	·	-3	35	-23
- C[C@H]1CN([C@@H](C)CO)C(=O)c2cc(Br)cnc2O[C@@H]1CN(C)C(=O)C1CCCCC1
 : ·	·	8	9	-1
- COc1ccc(S(=O)(=O)N(C)C[C@@H]2Oc3ccc(NC(=O)NC4CCCCC4)cc3C(=O)N([C@@H](C)CO)C[C@H]2C)cc1
 : ·	·	3	-19	9
- CN1CCN(c2nc3c(c(=O)[nH]c(=O)n3C)n2Cc2ccc(Cl)cc2)CC1
 : -1	67*	-9	1	0
- CCOC(=O)Cn1c(N2CCOCC2)nc2c1c(=O)[nH]c(=O)n2C
 : 1	-6	-1	118*	2
